Assay: clinical
Details: male, human, in vivo, po, time of maximum plasma concentrations after dosing
From the text: Thirty six healthy male volunteers (Caucasian, Black and Hispanic) were enrolled in this study, which was designed as an open label, single dose, 3-way crossover study.

Molecule `NC(=O)CC[C@@H]1NC(=O)[C@H](Cc2ccccc2)NC(=O)[C@H](Cc2ccc(O)cc2)NC(=O)CCSSC[C@@H](C(=O)N2CCC[C@H]2C(=O)N[C@H](CCCN=C(N)N)C(=O)NCC(N)=O)NC(=O)[C@H](CC(N)=O)NC1=O` [desmopressin, 1-desamino-8-D-arginine vasopressin] has a Tmax of 1.06 h.

Reference: patent US7947654B2, “Pharmaceutical formulations” (Ferring B.V., priority 2002, dated 2011)
